Results on two compounds are retold here after patent publication EP2565276A1.

The chains behind the UniProt entries cited, without tags or fusion partners.
UniProt P18031, whole entry C32S/C92S/C121S/C215S/L294C: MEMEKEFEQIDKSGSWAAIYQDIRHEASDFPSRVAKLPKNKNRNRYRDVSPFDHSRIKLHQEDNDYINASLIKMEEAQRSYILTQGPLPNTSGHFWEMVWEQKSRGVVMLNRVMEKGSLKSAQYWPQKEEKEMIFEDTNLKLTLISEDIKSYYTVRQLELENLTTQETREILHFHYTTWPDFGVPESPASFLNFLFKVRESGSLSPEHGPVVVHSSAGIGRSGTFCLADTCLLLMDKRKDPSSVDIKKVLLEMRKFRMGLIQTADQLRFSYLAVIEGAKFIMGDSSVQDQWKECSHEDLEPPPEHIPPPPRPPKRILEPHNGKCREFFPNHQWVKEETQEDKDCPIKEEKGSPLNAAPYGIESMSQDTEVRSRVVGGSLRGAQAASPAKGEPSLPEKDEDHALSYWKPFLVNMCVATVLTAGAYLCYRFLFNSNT
UniProt P18031, whole entry C32S/C92S/C121S/F182C/C215S: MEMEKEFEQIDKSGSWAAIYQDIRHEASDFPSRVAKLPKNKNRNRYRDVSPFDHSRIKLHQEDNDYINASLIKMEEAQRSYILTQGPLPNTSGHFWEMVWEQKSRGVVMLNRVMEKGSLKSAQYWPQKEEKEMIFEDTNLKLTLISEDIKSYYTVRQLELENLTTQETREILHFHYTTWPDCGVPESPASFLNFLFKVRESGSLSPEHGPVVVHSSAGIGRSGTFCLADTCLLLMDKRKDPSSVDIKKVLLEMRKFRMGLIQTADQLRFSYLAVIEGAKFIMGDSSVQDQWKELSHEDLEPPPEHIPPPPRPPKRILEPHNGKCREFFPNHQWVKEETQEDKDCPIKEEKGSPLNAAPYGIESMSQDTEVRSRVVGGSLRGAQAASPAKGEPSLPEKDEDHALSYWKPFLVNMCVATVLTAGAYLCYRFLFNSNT

SMILES strings stand for the structures.

For one assay, the target named is PTP1B (Homo sapiens, UniProt P18031, C121S/C215S/C32S/C92S/F182C). In words: Fluorescence-based binding assay, acrylodan label in the WPD loop (F182C), for active site binders. The following applies: read-out: mean Kd, ratiometric change in acrylodan emission, R = 460 nm / 515 nm.
In another assay the target is acrylodan-labeled PTP1b (Homo sapiens, UniProt P18031, C121S/C215S/C32S/C92S/L294C). The assay can be described thus: Binding and dissociation kinetics, acrylodan emission at a single wavelength (465 nm) over time, excess unlabeled PTP1b added. As to conditions: emission at 465 nm over time; compound added first (loss of fluorescence intensity).

On to `CC(C)(c1ccc(NS(=O)(=O)C(F)(F)F)cc1)c1ccc(C(C)(C)c2ccc(NS(=O)(=O)C(F)(F)F)cc2)cc1`, for which, on PTP1B, the Kd came out at 2300 nM. Consider `CCc1oc2cc(S(=O)(=O)Nc3ccc(S(=O)(=O)Nc4nccs4)cc3)ccc2c1C(=O)c1cc(Br)c(O)c(Br)c1`, for which the “fluorescence after subsequent addition of a large excess of unlabeled PTP1b” value on acrylodan-labeled PTP1b is “restored fluorescence to a higher level”.
